From PubChem BioAssay AID1499 (Sanford-Burnham Center for Chemical Genomics, 2009)
This is a selection; strong and weak results do not stand in their true shares. Activity calls are given as the source filed them.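 How the source made its calls: active means 10 µM primary screen giving 50% or more activity, confirmed by 40% or more on retest at that dose; inactive means the rest.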

By UniProt entry, the sequences of proteins in these tests, tags left out.
UniProt P05107, whole entry, looked up: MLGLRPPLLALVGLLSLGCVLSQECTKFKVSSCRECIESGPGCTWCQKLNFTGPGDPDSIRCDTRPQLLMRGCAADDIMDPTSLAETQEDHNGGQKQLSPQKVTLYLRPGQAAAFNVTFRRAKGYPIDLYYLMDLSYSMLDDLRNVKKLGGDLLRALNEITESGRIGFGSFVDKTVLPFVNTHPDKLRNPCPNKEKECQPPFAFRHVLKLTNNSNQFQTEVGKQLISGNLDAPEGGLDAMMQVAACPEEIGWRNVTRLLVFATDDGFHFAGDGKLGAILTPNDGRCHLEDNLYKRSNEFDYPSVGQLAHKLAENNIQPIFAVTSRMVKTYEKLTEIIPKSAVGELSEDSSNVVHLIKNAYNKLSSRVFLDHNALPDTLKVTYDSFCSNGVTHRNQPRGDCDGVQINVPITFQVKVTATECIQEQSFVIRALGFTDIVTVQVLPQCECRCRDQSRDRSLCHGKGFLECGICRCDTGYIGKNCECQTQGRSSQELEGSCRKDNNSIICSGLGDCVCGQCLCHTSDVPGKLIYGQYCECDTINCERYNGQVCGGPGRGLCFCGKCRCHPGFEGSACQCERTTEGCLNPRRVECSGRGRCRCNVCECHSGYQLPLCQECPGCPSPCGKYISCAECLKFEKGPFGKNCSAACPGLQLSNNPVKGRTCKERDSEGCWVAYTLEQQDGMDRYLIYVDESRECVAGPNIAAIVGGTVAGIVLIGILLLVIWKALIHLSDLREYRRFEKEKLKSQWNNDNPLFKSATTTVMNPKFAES

target: Integrin beta-2 (Homo sapiens) + Integrin alpha-M (Homo sapiens) (UniProt P05107+P11215); test: enhancers of CD11b/CD18 adhesion to fibrinogen, primary screen, K562 cells, luminescence (AID 1499); conditions: ATPlite luminescence, at 10 µM, hits give high values

Compound	activation
CCOP1(=S)c2c(C)nn(CCC#N)c2N=C(c2ccccc2F)N1C (stereo unspecified)	inactive: 13.7%
